Patent US12473298B2, “Amide compounds, preparation method therefor, and use thereof in the medical field” (Shanghai Synergy Pharmaceutical Sciences Co., Ltd., priority 2019, dated 2025)
Where a name gives a salt, the structure may show the parent alone. Read-outs that look alike come from different tables or passages of the source.

Sequences of proteins named here, by UniProt entry; tags and fusion partners are left off.
UniProt Q15910, whole entry Y641F: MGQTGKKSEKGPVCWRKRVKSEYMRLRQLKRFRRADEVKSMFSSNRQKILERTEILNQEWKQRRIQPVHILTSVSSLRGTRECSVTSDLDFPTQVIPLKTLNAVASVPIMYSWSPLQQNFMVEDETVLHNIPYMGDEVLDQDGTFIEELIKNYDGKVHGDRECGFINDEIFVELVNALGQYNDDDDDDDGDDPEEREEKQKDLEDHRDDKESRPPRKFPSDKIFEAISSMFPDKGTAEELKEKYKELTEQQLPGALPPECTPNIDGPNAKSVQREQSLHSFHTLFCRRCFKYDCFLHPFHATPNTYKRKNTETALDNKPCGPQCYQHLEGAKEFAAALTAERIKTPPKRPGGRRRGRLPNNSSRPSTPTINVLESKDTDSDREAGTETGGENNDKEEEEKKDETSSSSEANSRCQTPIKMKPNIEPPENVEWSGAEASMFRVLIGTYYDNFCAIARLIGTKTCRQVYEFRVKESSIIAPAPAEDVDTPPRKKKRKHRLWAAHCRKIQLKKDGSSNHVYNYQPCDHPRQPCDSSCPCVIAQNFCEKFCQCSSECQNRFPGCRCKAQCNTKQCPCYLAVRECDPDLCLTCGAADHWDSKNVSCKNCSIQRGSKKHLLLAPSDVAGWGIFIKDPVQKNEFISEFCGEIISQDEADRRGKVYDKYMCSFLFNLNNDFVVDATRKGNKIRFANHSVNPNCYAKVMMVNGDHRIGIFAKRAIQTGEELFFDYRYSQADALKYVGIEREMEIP
UniProt Q15910, whole entry A677G: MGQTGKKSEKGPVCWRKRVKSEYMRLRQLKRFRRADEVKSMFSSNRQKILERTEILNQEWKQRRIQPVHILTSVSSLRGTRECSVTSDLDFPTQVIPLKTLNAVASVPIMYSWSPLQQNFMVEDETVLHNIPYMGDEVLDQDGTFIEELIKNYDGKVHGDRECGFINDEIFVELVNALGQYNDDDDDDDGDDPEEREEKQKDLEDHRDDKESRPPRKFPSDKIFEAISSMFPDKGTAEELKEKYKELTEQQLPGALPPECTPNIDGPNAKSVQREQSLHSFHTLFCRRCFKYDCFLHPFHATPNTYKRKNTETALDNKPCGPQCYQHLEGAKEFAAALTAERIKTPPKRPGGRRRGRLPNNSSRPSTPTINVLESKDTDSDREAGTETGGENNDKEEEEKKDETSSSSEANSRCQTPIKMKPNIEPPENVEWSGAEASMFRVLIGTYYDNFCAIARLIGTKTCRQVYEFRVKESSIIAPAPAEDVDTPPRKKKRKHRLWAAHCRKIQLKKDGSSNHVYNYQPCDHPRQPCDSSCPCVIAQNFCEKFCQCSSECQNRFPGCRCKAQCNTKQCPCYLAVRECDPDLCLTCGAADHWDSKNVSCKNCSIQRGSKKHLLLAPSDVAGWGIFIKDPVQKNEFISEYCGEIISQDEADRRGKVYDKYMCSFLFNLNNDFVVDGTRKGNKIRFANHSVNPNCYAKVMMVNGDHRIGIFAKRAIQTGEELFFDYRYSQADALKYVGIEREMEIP
UniProt Q15910, whole entry Y641N: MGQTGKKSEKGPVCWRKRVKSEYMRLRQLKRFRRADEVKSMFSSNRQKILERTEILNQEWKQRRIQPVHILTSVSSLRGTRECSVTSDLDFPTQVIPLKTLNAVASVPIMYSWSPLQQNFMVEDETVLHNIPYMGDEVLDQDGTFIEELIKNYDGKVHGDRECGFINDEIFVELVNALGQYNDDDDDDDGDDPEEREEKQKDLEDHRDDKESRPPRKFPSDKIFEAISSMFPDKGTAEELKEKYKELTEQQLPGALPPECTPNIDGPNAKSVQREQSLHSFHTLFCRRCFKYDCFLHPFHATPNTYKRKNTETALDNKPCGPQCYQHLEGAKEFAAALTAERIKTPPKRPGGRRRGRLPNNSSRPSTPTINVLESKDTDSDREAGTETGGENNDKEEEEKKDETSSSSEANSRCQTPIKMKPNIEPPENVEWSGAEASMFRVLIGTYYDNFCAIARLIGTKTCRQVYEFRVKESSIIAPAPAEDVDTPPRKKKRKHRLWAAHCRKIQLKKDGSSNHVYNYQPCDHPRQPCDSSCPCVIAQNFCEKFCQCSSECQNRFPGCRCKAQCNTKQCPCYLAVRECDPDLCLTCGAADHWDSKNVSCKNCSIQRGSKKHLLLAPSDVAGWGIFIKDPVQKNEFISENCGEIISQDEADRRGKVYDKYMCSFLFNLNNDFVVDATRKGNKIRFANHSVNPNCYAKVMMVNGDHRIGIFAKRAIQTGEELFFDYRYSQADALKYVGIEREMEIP
UniProt Q15910, whole entry: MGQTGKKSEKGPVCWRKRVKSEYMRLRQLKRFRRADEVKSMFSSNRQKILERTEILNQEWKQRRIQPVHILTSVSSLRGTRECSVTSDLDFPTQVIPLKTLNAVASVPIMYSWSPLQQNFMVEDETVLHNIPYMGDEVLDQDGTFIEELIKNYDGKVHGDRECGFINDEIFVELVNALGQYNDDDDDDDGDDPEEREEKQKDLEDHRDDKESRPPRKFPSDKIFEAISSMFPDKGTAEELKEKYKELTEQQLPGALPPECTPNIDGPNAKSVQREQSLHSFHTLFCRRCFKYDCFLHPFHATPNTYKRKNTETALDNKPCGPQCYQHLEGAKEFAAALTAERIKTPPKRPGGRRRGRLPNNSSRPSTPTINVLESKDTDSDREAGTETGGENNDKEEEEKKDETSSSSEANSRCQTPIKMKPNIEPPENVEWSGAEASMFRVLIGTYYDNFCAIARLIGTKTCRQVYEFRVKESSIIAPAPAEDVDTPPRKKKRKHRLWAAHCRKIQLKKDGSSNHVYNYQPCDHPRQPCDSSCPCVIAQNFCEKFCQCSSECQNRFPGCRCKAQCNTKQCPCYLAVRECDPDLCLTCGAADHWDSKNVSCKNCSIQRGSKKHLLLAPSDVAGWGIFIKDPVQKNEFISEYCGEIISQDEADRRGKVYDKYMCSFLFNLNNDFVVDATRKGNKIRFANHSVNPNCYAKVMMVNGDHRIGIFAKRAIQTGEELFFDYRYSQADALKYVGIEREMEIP

Experiments:
[1] = system: human diffuse large B-cell lymphoma cells (WSU-DLCL2 cell); assay: Pharmacodynamic experiment, WSU-DLCL2 transplanted tumor model in mice; format: in vivo, mice (CB17/SCID); settings: Mus musculus, WSUDLCL2, po, 504 h, read-out: inhibited tumor growth
Method: The effect of the inventive compounds on tumor growth was discussed. A certain amount of compound was weighted and dissolved in 0.1% Tween under vortex and ultrasound, and 0.5% carboxymethyl cellulose sodium (CMC-NA) solution was added to form a uniform solution. […] Each mouse was inoculated with 1*10^7 cells with a volume of 100 μL. […] [table]

[2] = system: human diffuse large B-cell lymphoma cells (WSU-DLCL2 cell); assay: Pharmacodynamic experiment in combination with other drugs, WSU-DLCL2 transplanted tumor model in mice; format: in vivo, mice (CB17/SCID); settings: 125 mg/kg, intragastrically, twice a day for 21 days
Method: (§1) The effect of the inventive compounds on tumor growth was discussed.
(§2) A certain amount of compound was weighted and dissolved in 0.1% Tween under vortex and ultrasound, and 0.5% carboxymethyl cellulose sodium (CMC-NA) solution was added to form a uniform solution.
(§3) Under sterile conditions, diffuse large B-cell lymphoma cells (WSU-DLCL2 cell) in logarithmic growth stage were digested and mixed with Matrigel and transplanted subcutaneously on the right back of mice (CB17/SCID) with severe combined immunodeficiency disease. Each mouse was inoculated with 1*10^7 cells with a volume of 100 μL. After inoculation, the mice were randomly divided into 10 groups according to the tumor size balance evenly for in vivo pharmacodynamic experiments, with 6 mice in each group. The positive control group was given EPZ-6438 and GSK126, and the negative control group was given the same amount of menstruum.

[3] = system: human diffuse large cell lymphoma B lymphocytes (Pfeiffer cell); assay: Pharmacodynamic experiment, Pfeiffer transplanted tumor model in mice; format: in vivo, mice (beige SCID); settings: Mus musculus, po, 504 h, intragastrically, once a day for 21 days, read-out: inhibited tumor growth
Method: as §1, §2
The human diffuse large cell lymphoma B lymphocytes (Pfeiffer cell) were ordered from Cobioer, Nanjing, and were cultured with RPMI1640 (Kangning, 35417005), 20% fetal calf serum (Ausbina, 0986180) and 1% penicillin/streptomycin double-antibody (Kangning, 30002297).
as §3, with “conditions, human” for “conditions,”, “large cell” for “large B-cell”, “lymphoma B lymphocytes (Pfeiffer” for “lymphoma cells (WSU-DLCL2”, “mice (beige SCID)” for “mice (CB17/SCID)”, “into 12” for “into 10”

[4] = target: Mutant type EZH2(Y641F) (Homo sapiens (Human), UniProt Q15910, Y641F); assay: AlphaLISA, mutant type PRC2 complex EZH2(Y641F); format: biochemical; settings: read-out: Mutant type EZH2(Y641F) IC50 Nanomoles per Liter
[5] = target: Mutant type EZH2(A677G) (Homo sapiens (Human), UniProt Q15910, A677G); assay: AlphaLISA, mutant type PRC2 complex EZH2(A677G); format: biochemical; settings: read-out: Mutant type EZH2(A677G) IC59 Nanomoles per Liter
[6] = target: Mutant type EZH2(Y641N) (Homo sapiens (Human), UniProt Q15910, Y641N); assay: AlphaLISA, mutant type PRC2 complex EZH2(Y641N); format: biochemical; settings: read-out: Mutant type EZH2(Y641N) IC50 Nanomoles per Liter
[7] = system: human diffuse large cell lymphoma B lymphocytes (Pfeiffer cell); assay: Pfeiffer cell proliferation, Calcein AM staining; format: cell-based; settings: Homo sapiens, Pfeiffer, read-out: Pfeiffer Proliferation IC50 Nanomoles per Liter (nM)
[8] = target: wild-type EZH2 (Homo sapiens (Human), UniProt Q15910); assay: radiometric assay, activity to wild-type EZH2 of PRC2; settings: read-out: Wild-type EZH2 IC50 Nanomoles per Liter

Structure (SMILES): CCN(c1cc(-c2ccc(CN3CCOCC3)cc2)cc(C(=O)NCc2c(C)cc(C)[nH]c2=O)c1C)C1CCOCC1 [EPZ-6438, reference compound]
- inhibition in vivo at 150 mg/kg ([1]; 150 mg/kg, intragastrically, twice a day for 21 days): 59%
- inhibited tumor growth [2]: 65%
- inhibition in vivo at 100 mg/kg [3]: 77%

Structure (SMILES): CCN(c1cc(-c2ccc3c(c2)NC(=O)C32CCOCC2)cc(C(=O)NCc2c(OC)cc(C)[nH]c2=O)c1C)C1CCNCC1 [Example 3, 3-(ethyl(piperidin-4-yl)amino)-N-((4-methoxy-6-methyl-2-oxo-1,2-dihydropyridin-3-yl)methyl)-2-methyl-5-(2-oxo-2′,3′,5′,6′-tetrahydrospiro[dihydroindole-3,4′-pyran]-6-yl)benzamide]
- inhibition in vivo at 150 mg/kg [1]: 83%

Structure (SMILES): CCN(c1cc(-c2ccc3c(c2)C2(CC3)CC(C)N(CC)C(C)C2)cc(C(=O)NCc2c(OC)cc(C)[nH]c2=O)c1C)C1CCOCC1 (stereo not shown) [Example 50, 3-(ethyl(tetrahydro-2H-pyran-4-yl)amino)-5-(1′-ethyl-2′,6′-dimethyl-2,3-dihydrospiro[indene-1,4′-piperidine]-6-yl)-N-((4-methoxy-6-methyl-2-oxo-1,2-dihydropyridin-3-yl)methyl)-2-methylbenzamide formate]
- IC50 [4]: 0.68 nM
- IC50 [5]: 0.5 nM
- IC50 [6]: 0.32 nM
- IC50 [7]: 0.75 nM
- IC50 [8]: 0.76 nM

Structure (SMILES): CCN(c1cc(-c2ccc3c(c2)NC(=O)C32CCOCC2)cc(C(=O)NCc2c(C)cc(C)[nH]c2=O)c1C)C1CCOCC1 [Example 66, N-((4,6-dimethyl-2-oxo-1,2-dihydropyridin-3-yl)methyl)-3-(ethyl(tetrahydro-2H-pyran-4-yl)amino)-2-methyl-5-(2-oxo-2′,3′,5′,6′-tetrahydrospiro[dihydroindole-3,4′-pyran]-6-yl)benzamide]
- inhibition in vivo at 150 mg/kg [1]: 81%
